Where “and” joins values, the source holds several entries; their conditions need not be identical. Equal values may be shown once.
Assay: Odor evaluation by 3-4 panelists of activator, waving composition and hair tresses
Experimental: The disulfide or thiol additive was added in the concentration indicated in Tables 3 and 4, to 200 g of neat glyceryl monothioglycolate (GMr) in a 250 mL beaker.
Odor evaluation was conducted by 3-4 panelists who rated the odors on a scale of 1-5 where 1=no malodor and 5=extreme malodor. […] To this solution was added two tresses of dark brown, virgin hair (1 inch wide, 6 inches long), that had been washed with a 10% solution of SLS and soaked in synthetic sweate^8 at 37° C. for 17 hr, then lightly rinsed. The beaker containing the GMT activator was covered with foil and was allowed to sit for 5 to 10 minutes prior to odor evaluation. The tresses were then allowed to process in the wave composition for 20 minutes at room temperature in a covered beaker. The tresses were rinsed with tap water, towel blotted, then added to 80 mL of Matrix Opticurl Rebonding Neutralizer and processed for 5 minutes. After rinsing, the damp hair was evaluated for odor.
8. Recipe for synthetic sweat: 10 g sodium chloride, 1 g potassium hydrogen phosphate, 0.25 g histidine, lactic acid to adjust pH to 3.2 and water to make 1 L.

Which “Odor of hair rating” value does the source give for CC(C)(CO)[C@@H](O)C(=O)NCCC(=O)NCCSSCCNC(=O)CCNC(=O)[C@H](O)C(C)(C)CO [pantethine] here?
Its value is 1.4 and 2.8.

What about the “Odor rating of waving composition (with activator)” value of the same molecule?
Its value is 4.5 and 3.0.
